Where “and” joins values, the source holds several entries; their conditions need not be identical. Equal values may be shown once.
Key:
in vivo = conditions: mouse, po, 25 mg/kg; for concentration at 0.5 h: 0.500 hr

For `COc1ccc2c(NCc3cccnc3)ccnc2c1` [QR2I-44, 7-methoxy-4-(pyridin-3-yl) methylaminoquinoline], the “Concentrations in Mouse Brain Homogenate, individual animals” value (PO 25 mg/kg, 6.00 hr, Rep # 1-6 (animals 7-12), BQL = <5.00 ng/mL, 25 mg/kg) was “BQL (Below the quantitation limit (<5.00 ng/mL)) (4×) and 5.08 ng/mL”, the “absorption and brain penetration” value (mice, IV, IP and PO) was “well absorbed and to be brain penetrant” and the concentration at 0.5 h (in vivo; brain homogenate, Concentrations in Mouse Brain Homogenate, Mean) was 559 ng/mL. It also gave a concentration at 6 h (in vivo; brain homogenate, Concentrations in Mouse Brain Homogenate, Mean, 6.00 hr (mean of quantifiable samples)) of 5.25 ng/mL, a concentration at 6 h (in vivo; brain homogenate, Concentrations in Mouse Brain Homogenate, individual animals, 6.00 hr, Rep # 1-6 (animals 7-12), BQL = <5.00 ng/mL) of 5.42 ng/mL and a concentration at 0.5 h (in vivo; plasma, Concentrations in Mouse Plasma, Mean) of 856 ng/mL. For the same compound, the concentration at 6 h (in vivo; plasma, Concentrations in Mouse Plasma, Mean, 6.00 hr) was 13 ng/mL.

From US12331032B2, “Quinone reductase 2 inhibitor compounds and uses thereof” (DUKE UNIVERSITY, priority 2018, dated 2025)
